# Binding of CDR-mutated scFvs to a peptide of the spike HR2 region

All variants were tested on one target, the spike HR2 peptide PDVDLGDISGINAS (SARS-CoV-2).

Parent: Ab-95, a human scFv built as VH, a 15-residue (Gly4Ser)3 linker, VL. Only the CDRs of the light chain vary.
VH: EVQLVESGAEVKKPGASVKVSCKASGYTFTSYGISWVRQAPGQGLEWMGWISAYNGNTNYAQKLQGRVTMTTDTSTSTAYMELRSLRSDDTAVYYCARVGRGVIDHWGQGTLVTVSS
VL: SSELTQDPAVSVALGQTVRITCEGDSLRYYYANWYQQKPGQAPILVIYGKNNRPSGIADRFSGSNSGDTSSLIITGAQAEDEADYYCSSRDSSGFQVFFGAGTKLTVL

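Phage display of a naive human antibody library on the peptide gave the parent. Variants in AAYL52 differ from the parent at up to three CDR positions; double and triple changes were sampled at random. The assay is AlphaSeq: two haploid yeast populations carry antibody and antigen on their surface. Binding brings cells together so that they mate, and sequencing counts the barcode pairs among the diploids. Each replicate has its own calibration line, from reference interactions of the BCL2 family. Each pool was mated in three replicate cultures.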

Sequences are complete VL domains. All variants listed here change F98 of the VL, counted from its first residue. Numbers give log10(Kd / nM), so 0 is 1 nM and 3 is 1 µM. Smaller is tighter. A mean of the replicates is given; it leaves out those without a signal. Where no diploid with the target was found in that replicate, the entry reads "nd": below detection, most likely a poor binder, though not proof of it. Order: sorted from the lowest average up, undetected variants last. As a blank, each scFv also met three strains without target: over library AAYL52, 28% of these pairings were detected, typically at 3.91 and seldom below 2.90. The control count says in how many pairings with the empty strains this scFv gave a signal.

The variant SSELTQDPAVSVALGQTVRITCEGDSLQNYYANWYQQKPGQAPILVIYGKNNRPSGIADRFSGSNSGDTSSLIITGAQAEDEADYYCSSRDSSGFQVQFGAGTKLTVL showed 1.87, 1.55, 1.34 (mean 1.59; controls 2 of 9). For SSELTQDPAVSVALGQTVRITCEGDSLSYYYANWYQQKPGQAPILVIYGKFNRPSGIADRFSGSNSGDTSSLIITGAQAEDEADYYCSSRDSSGFQVWFGAGTKLTVL, the assay gave 2.14, 1.76, nd (mean 1.95; controls 0 of 9). For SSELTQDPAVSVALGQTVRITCEGKSLLYYYANWYQQKPGQAPILVIYGKNNRPSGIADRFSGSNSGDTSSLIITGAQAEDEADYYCSSRDSSGFQVHFGAGTKLTVL, the assay gave 2.39, 2.12, 2.41 (mean 2.31; controls 3 of 9). The variant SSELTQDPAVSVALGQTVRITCEGDSLRYRYANWYQQKPGQAPILVIYGKNARPSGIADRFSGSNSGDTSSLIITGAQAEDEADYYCSSRDSSGFQVRFGAGTKLTVL showed 2.18, 2.50, 2.30 (mean 2.33; controls 6 of 9). With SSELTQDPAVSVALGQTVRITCEGDYLRYYYANWYQQKPGQAPILVIYGKNNRPSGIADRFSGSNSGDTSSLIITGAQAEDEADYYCSSRDSSGFQVKFGAGTKLTVL the result was 2.17, 2.60, 2.21 (mean 2.33; controls 1 of 9). With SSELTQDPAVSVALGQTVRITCSGDSLRYYYANWYQQKPGQAPILVIYGKNNRPSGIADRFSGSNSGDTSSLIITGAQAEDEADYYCGSRDSSGFQVMFGAGTKLTVL the result was 2.56, 2.38, 2.18 (mean 2.37; controls 1 of 9). With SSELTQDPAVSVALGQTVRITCEGDSLRYYYANWYQQKPGQAPILVIYGKNNRPSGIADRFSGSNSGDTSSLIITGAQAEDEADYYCSGRDSSGFQVGFGAGTKLTVL the result was 2.49, 2.43, 2.52 (mean 2.48; controls 6 of 9). With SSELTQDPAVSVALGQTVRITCEGDSLRYYYANWYQQKPGQAPILVIYGKNNRPSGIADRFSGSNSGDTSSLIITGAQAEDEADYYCSMRDSSGEQVKFGAGTKLTVL the result was nd, 2.68, nd (controls 2 of 9). For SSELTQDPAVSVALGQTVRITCEGDSNRYYYANWYQQKPGQAPILVIYGKNNRPSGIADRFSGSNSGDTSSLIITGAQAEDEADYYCASRDSSGFQVVFGAGTKLTVL, the assay gave 2.48, nd, 3.13 (mean 2.81; controls 0 of 9).

The variant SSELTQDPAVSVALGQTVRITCEGDSLRYYYANWYQQKPGQAPILVIYGKNNRRSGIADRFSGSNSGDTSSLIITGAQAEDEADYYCSSRDSSGFLVIFGAGTKLTVL gave 3.00, nd, nd (controls 8 of 9). The variant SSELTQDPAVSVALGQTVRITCEGDSLRYYTANWYQQKPGQAPILVIYGKNPRPSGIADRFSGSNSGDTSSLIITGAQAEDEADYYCSSRDSSGFQVAFGAGTKLTVL gave 2.99, nd, 3.68 (mean 3.34; controls 4 of 9). The variant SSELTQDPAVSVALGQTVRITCEGDSLRYYYANWYQQKPGQAPILVIYGKNHRPSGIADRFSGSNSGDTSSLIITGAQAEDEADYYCWSRDSSGFQVNFGAGTKLTVL showed nd, 3.07, 3.81 (mean 3.44; controls 2 of 9). For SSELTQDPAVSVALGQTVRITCEGDSLRYYYANWYQQKPGQAPILVIYGKRNRPSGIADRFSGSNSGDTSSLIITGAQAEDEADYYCSSRDSSCFQVIFGAGTKLTVL, the assay gave 3.58, nd, 3.44 (mean 3.51; controls 2 of 9). For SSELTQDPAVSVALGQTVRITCEGDSLGYYYANWYQQKPGQAPILVIYGKNNRKSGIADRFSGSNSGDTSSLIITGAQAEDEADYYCSSRDSSGFQVVFGAGTKLTVL, the assay gave 4.06, 3.58, 4.39 (mean 4.01; controls 4 of 9). With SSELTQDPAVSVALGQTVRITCEGDSIRYYYANWYQQKPGQAPILVIYGKENRPSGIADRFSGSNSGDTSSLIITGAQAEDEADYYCSSRDSSGFQVDFGAGTKLTVL the result was 4.16, nd, nd (controls 3 of 9). The variant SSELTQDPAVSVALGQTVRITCEYDSLRYYYANWYQQKPGQAPILVIYGKNNRPSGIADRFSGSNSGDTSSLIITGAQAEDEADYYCSSRDSSGFVVNFGAGTKLTVL gave 5.23, nd, 4.46 (mean 4.84; controls 2 of 9). The variant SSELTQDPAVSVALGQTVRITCEGQSLRYLYANWYQQKPGQAPILVIYGKNNRPSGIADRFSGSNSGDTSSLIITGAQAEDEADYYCSSRDSSGFQVGFGAGTKLTVL showed nd, nd, nd (controls 1 of 9). For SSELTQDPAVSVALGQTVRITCEGDSLRYYYANWYQQKPGQAPILVIYGKNNRPSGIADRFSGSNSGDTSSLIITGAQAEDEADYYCSSRKSSLFQVYFGAGTKLTVL, the assay gave nd, nd, nd (controls 0 of 9).

With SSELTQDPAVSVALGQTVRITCEGDSLRYYYANWYQQKPGQAPILVIYKKNNRPSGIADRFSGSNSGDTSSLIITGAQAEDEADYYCSSRDSSGFQVHFGAGTKLTVL the result was nd, nd, nd (controls 0 of 9).

The closing 2 entries, repeated:

The variant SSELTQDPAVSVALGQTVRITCEGDSLRYYYANWYQQKPGQAPILVIYGKNNRPSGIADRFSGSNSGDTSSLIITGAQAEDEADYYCSSRKSSLFQVYFGAGTKLTVL gave nd, nd, nd (controls 0 of 9).
The variant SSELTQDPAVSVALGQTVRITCEGDSLRYYYANWYQQKPGQAPILVIYKKNNRPSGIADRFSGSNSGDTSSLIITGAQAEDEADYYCSSRDSSGFQVHFGAGTKLTVL gave nd, nd, nd (controls 0 of 9).

Reference: Engelhart et al. 2022, doi:10.1038/s41597-022-01779-4. File: FLAb, binding data.